Like-named read-outs stand apart in the source and are kept apart here. Values belong to the compound of their own block, whether it stands above or below them.
Target: CRTH2 (Homo sapiens, UniProt Q9Y5Y4)
Assay: Binding activity to CRTH2 ([3H]PGD2 binding assay)

Sequences of proteins named here, by UniProt entry; tags and fusion partners are left off.
UniProt Q9Y5Y4, whole entry: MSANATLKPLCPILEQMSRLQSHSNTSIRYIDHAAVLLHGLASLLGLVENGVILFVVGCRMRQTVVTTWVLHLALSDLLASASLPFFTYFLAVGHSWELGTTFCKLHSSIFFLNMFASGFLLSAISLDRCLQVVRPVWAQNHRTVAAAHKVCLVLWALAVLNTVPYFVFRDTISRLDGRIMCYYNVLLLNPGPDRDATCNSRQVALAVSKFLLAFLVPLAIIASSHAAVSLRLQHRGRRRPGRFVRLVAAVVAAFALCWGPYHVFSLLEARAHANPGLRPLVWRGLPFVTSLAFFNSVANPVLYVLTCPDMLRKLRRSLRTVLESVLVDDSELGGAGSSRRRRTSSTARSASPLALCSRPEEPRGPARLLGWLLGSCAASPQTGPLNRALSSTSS

IC50 (read-out: CRTH2 inhibitory activity IC50, membrane fraction of CRTH2-transfected K562 cells, tested form: MeOH solvate): 35 nM
SMILES: O=C(O)Cn1nc(-c2cccc(NS(=O)(=O)c3ccc(F)cc3)c2)c2ccccc21

IC50 (read-out: CRTH2 inhibitory activity IC50, membrane fraction of CRTH2-transfected K562 cells): 68 nM
SMILES: O=C(O)Cn1cc(C2=CCN(S(=O)(=O)c3ccc(F)cc3)CC2)c2ccccc21

IC50 (read-out: CRTH2 inhibitory activity IC50, membrane fraction of CRTH2-transfected K562 cells, tested form: 0.8 MeOH solvate): 35 nM
SMILES: O=C(O)Cn1cc(-c2cccc(NS(=O)(=O)c3ccc(F)cc3)c2)c2ccccc21

Reference: patent publication US7534897B2 (Shionogi & Co., Ltd., priority 2002, dated 2009)
